Columns and labels:
[1] = target: microtubules polymerised from wild-type mouse brain tubulin (mouse (endogenous in brain)) (UniProt P68369); assay: TIRF microscopy of fluorescent protein on immobilised microtubules
[2] = target: microtubules polymerised from Ttll1 −/− Ttll7 −/− double-knockout mouse brain tubulin (mouse (endogenous in brain)) (UniProt P68369); assay: as above

The chains behind the UniProt entries cited, without tags or fusion partners. Where a name states a change or a piece, a line headed by the entry shows the natural chain unless it says otherwise.
UniProt P68369: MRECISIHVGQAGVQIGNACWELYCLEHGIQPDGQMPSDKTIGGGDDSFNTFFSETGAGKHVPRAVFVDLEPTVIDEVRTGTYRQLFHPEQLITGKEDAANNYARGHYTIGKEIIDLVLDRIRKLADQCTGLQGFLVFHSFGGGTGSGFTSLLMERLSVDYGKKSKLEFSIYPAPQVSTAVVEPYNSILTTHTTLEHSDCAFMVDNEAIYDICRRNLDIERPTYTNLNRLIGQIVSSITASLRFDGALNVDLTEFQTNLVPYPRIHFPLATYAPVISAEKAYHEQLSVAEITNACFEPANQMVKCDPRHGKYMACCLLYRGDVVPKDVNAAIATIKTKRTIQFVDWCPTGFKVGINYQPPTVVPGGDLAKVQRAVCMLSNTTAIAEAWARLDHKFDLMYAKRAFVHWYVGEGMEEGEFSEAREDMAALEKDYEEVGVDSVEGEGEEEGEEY

Kd [1]: 480 nM
Kd [2]: 710 nM
Substance: Tau(2N4R) of human Tau fused with C-terminal mCherry (from UniProt P10636-8 1-441) (natural protein)

Reference: publication PMC9975938
